Data as given in publication doi:10.1101/2025.03.18.643923, “Widely used CaMKII regulatory segment mutations cause tight actinin binding and dendritic spine enlargement in unstimulated neurons” (bioRxiv, 2025).

By UniProt entry, the sequences of proteins in these tests, tags left out. Residues count along the entry.
UniProt P11275, 1-315 T305A/T306A: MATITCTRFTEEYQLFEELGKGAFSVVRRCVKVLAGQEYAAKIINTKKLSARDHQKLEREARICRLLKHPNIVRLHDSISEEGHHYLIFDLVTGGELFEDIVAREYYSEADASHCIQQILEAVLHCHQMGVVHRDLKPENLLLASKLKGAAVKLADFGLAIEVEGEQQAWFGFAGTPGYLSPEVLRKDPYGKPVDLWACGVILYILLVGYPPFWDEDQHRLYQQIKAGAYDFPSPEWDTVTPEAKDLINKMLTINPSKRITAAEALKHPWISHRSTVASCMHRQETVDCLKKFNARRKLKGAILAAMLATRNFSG

Target: Trx-CaMKIIα (1-315) T305A/T306A (UniProt P11275 1-315, T305A | T306A)
Assay: ITC; MicroCal PEAQ, 25 mM HEPES pH 7.5, 150 mM NaCl, 2 mM MgCl2, 1 mM ADP; syringe 300 μM EF3-4, cell 30 μM Trx-CaMKIIα 1–315; single site binding model
Conditions: both partners purified

B1: Human α-actinin-2 EF3-4 (positions 827-894) (domain or fragment, UniProt P35609 827-894, looked up)
chain: TAEQVIASFRILASDKPYILAEELRRELPPDQAQYCIKRMPAYSGPGSVPGALDYAAFSSALYGESDL
notes: α-actinin-2, human, third and fourth EF hands, positions 827-894; also called α-actinin-2 EF hands 3-4; source: E. coli Rosetta pLysS, purified (Ni-NTA, Glutathione Sepharose, Tev cleavage, Superdex 75); not shown: His, N-terminal, cleaved; GST, N-terminal, cleaved
- Kd: 154 nM
